# Reference: patent US20260384438A1, “PYRROLOPYRIMIDINE CARBOXAMIDES” (published 2026)
# The chains behind the UniProt entries cited, without tags or fusion partners.
# UniProt Q13554, whole entry: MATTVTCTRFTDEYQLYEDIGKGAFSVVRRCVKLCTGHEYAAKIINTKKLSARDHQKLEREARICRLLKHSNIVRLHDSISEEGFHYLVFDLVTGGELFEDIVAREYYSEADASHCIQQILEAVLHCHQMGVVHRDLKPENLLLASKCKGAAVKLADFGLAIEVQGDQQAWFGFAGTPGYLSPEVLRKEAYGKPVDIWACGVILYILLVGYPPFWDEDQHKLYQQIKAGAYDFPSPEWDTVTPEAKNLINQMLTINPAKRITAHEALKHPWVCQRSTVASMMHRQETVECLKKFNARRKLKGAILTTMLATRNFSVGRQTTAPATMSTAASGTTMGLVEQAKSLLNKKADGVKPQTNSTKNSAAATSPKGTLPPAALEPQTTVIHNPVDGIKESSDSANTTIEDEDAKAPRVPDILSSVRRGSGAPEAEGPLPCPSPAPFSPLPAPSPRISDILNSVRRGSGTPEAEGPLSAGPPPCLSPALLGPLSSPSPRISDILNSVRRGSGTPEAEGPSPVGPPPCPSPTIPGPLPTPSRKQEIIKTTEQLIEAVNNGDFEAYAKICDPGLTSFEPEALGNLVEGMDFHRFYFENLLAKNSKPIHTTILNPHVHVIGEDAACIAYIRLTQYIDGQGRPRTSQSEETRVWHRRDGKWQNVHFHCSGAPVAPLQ
# UniProt O14757, whole entry: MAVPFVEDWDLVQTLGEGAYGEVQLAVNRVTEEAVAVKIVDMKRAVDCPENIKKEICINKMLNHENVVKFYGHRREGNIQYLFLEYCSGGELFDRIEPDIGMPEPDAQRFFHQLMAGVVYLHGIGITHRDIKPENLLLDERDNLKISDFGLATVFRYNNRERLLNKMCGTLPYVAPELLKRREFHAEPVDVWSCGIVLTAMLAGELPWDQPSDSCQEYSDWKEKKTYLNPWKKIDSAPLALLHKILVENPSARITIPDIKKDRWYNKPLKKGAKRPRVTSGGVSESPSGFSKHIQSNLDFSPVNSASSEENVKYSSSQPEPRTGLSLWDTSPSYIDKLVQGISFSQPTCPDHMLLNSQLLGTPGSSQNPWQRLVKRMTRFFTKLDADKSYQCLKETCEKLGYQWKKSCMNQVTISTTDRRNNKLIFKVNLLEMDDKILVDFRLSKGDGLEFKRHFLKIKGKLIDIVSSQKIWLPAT
# UniProt O96017, whole entry: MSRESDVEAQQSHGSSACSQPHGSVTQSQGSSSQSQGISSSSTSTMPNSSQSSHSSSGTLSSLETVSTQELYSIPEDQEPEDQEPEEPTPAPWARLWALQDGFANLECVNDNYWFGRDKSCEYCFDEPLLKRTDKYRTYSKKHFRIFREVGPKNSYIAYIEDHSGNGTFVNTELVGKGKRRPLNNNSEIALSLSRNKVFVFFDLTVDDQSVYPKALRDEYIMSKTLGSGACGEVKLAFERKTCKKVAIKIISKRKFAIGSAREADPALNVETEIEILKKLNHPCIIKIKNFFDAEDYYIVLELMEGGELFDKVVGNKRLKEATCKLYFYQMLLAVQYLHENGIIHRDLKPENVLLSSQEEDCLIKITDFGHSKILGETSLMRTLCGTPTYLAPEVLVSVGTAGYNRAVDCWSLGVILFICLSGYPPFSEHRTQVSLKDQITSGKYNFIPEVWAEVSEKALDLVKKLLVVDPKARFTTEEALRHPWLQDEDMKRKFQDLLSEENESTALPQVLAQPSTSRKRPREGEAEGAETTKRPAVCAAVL
# UniProt P49760, whole entry: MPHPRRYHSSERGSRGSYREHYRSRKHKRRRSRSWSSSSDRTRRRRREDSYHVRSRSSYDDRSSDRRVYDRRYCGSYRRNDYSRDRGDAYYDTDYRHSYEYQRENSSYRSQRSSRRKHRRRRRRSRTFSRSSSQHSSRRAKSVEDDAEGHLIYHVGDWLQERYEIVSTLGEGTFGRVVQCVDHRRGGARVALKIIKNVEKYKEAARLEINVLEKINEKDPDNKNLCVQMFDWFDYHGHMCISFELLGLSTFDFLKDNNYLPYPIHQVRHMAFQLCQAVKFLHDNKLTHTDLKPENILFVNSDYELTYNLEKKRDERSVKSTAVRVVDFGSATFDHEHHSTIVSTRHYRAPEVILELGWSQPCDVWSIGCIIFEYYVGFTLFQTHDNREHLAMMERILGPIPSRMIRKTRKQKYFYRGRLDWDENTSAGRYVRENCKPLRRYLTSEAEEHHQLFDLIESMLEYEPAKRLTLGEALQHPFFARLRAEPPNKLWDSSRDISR
# UniProt P41240, whole entry: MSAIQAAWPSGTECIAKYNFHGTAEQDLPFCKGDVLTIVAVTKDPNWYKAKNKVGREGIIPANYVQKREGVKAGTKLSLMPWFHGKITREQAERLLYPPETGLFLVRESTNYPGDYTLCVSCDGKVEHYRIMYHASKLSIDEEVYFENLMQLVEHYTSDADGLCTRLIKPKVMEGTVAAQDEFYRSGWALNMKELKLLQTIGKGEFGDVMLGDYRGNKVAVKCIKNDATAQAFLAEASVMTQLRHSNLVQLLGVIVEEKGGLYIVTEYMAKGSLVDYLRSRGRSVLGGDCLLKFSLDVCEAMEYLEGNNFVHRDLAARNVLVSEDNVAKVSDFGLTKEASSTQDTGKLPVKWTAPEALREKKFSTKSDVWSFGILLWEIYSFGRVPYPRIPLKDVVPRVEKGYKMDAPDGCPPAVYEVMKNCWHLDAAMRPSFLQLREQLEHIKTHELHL
# UniProt P19784, whole entry: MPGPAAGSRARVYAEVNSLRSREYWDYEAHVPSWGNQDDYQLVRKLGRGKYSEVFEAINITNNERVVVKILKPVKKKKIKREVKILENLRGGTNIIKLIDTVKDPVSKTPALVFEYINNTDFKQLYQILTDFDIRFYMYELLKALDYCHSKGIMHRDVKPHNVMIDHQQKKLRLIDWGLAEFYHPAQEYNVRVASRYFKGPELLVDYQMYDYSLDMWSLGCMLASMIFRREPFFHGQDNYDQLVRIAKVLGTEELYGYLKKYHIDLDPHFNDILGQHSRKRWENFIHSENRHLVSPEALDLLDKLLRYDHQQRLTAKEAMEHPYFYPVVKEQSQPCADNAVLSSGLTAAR
# UniProt P16591, whole entry: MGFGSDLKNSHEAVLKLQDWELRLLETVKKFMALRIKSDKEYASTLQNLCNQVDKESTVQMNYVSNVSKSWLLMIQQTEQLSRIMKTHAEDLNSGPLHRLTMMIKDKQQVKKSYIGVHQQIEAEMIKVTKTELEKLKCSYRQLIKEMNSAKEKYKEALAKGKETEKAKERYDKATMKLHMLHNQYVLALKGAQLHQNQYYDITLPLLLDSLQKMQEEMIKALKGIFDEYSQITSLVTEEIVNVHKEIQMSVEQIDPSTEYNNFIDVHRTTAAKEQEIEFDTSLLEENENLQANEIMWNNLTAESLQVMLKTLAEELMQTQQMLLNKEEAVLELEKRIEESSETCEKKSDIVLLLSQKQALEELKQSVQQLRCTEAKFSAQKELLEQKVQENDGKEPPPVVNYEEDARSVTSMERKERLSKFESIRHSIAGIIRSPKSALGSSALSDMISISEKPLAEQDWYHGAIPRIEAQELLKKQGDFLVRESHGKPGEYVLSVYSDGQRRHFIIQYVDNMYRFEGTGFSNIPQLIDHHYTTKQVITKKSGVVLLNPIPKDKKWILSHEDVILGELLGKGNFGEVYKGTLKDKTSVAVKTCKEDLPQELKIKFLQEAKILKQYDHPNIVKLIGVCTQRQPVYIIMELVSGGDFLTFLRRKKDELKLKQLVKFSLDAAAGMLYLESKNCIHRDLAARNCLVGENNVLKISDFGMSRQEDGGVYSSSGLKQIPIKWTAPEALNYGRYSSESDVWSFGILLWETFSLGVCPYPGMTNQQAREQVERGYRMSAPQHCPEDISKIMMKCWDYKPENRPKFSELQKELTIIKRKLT
# UniProt P27361, whole entry: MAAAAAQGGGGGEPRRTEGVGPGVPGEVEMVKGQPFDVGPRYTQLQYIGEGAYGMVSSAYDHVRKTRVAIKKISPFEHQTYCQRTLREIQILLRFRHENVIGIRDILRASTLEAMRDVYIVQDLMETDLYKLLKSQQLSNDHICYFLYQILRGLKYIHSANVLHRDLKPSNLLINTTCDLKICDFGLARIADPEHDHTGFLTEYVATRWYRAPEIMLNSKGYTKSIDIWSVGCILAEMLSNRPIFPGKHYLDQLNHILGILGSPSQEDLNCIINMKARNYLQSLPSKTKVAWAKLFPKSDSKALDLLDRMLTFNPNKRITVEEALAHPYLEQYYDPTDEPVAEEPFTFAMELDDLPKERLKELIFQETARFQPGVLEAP
# UniProt P42679, whole entry: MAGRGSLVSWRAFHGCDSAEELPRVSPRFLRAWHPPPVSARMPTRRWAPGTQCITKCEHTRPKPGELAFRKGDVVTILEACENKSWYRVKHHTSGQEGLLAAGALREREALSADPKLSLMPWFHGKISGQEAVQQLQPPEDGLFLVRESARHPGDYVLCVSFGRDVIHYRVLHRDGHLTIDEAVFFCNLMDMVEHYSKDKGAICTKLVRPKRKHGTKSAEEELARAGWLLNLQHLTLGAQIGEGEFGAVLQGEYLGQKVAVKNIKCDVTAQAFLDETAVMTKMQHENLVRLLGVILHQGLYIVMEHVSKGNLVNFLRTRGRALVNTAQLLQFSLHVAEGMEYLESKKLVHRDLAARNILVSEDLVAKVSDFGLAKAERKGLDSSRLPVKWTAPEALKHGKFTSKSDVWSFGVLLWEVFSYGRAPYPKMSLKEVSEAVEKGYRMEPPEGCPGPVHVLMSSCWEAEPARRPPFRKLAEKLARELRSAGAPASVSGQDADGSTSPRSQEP
# UniProt Q9P286, whole entry: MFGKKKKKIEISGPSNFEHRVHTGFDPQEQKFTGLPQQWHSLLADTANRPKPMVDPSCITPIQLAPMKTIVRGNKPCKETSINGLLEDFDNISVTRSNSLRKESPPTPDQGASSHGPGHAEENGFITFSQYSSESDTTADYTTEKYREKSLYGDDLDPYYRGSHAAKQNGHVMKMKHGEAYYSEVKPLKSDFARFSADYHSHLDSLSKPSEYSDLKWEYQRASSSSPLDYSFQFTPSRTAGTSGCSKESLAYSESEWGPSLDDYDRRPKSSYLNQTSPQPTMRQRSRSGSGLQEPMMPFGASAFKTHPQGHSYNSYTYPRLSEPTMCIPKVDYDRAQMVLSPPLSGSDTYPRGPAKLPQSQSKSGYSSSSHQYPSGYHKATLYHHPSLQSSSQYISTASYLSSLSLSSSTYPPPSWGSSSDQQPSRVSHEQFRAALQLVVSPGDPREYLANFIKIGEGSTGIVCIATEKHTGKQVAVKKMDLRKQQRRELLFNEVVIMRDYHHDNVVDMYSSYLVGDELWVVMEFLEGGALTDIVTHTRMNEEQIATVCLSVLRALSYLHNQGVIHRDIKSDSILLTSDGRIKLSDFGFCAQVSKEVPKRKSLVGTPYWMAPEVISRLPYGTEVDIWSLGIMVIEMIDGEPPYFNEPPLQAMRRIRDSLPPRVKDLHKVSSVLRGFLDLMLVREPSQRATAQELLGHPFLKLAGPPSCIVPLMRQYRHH
# UniProt Q9H3Y6, whole entry: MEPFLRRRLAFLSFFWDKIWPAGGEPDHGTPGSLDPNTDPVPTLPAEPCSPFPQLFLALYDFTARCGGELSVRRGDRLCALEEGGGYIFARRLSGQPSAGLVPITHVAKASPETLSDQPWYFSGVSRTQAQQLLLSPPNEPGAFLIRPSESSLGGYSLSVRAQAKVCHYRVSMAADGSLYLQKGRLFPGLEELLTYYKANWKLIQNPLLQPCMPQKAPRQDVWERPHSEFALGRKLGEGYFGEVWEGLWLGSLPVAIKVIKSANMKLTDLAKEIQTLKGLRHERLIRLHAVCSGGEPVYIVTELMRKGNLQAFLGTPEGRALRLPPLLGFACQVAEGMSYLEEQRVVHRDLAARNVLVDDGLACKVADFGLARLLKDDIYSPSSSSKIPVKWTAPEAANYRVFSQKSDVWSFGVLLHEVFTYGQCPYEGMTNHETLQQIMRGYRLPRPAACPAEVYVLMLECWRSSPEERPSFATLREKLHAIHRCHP
# UniProt Q9UPE1, whole entry: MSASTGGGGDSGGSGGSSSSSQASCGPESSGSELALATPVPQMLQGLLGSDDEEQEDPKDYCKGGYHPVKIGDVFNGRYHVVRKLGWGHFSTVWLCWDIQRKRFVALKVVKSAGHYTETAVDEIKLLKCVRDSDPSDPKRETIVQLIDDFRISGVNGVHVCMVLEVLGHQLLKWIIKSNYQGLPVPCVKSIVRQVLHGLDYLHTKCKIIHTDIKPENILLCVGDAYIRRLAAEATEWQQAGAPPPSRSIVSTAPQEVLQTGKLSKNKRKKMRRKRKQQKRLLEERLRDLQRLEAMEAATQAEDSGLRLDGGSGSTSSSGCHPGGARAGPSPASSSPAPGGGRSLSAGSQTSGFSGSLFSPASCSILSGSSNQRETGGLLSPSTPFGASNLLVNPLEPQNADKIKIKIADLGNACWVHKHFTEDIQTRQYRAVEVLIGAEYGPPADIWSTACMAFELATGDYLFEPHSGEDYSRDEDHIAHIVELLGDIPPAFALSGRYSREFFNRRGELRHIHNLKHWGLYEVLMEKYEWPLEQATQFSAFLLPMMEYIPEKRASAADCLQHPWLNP
# How the values were obtained:
# Test in all cases: Kinase profiling, Z-Lyte
# [1] = biological target: ABL1 Hu Phos (Homo sapiens, UniProt P00519)
# [2] = biological target: ADRBK2 (GRK3) (Homo sapiens, UniProt P35626); conditions: 1 μM, KmATP
# [3] = biological target: AMPK A1/B2/G3 (Homo sapiens, UniProt Q13131); conditions: 1 μM, KmATP
# [4] = biological target: AMPK A2/B1/G3 (Homo sapiens, UniProt P54646); conditions: 1 μM, KmATP
# [5] = biological target: AURKB (Aurora B) (Homo sapiens, UniProt Q96GD4); conditions: 1 μM, KmATP
# [6] = biological target: CAMK2B (Homo sapiens, UniProt Q13554); conditions: 1 μM, KmATP
# [7] = biological target: CHEK1 (CHK1) (Homo sapiens, UniProt O14757); conditions: 1 μM, KmATP
# [8] = biological target: CHEK2 (CHK2) (Homo sapiens, UniProt O96017); conditions: 1 μM, KmATP
# [9] = biological target: CLK2 (Homo sapiens, UniProt P49760); conditions: 1 μM, KmATP
# [10] = biological target: CSK (Homo sapiens, UniProt P41240); conditions: 1 μM, KmATP
# [11] = biological target: CSNK1A1L (Homo sapiens, UniProt Q8N752); conditions: 1 μM, KmATP
# [12] = biological target: CSNK2A2 (CK2alpha2) (Homo sapiens, UniProt P19784); conditions: 1 μM, KmATP
# [13] = biological target: DYRK1A (Homo sapiens, UniProt Q13627); conditions: 1 μM, KmATP
# [14] = biological target: EPHA1 (Homo sapiens, UniProt P21709)
# [15] = biological target: EPHAS (Homo sapiens, UniProt P54756); conditions: 10-point CR, ATP 150.000 μM
# [16] = biological target: FER (Homo sapiens, UniProt P16591); conditions: 1 μM, KmATP
# [17] = biological target: HIPK2 (Homo sapiens, UniProt Q9H2X6); conditions: 1 μM, KmATP
# [18] = biological target: JAK1 (Homo sapiens, UniProt P23458); conditions: 1 μM, KmATP
# [19] = biological target: LCK (Homo sapiens, UniProt P06239)
# [20] = biological target: MAP4K5 (KHS1) (Homo sapiens, UniProt Q9Y4K4); conditions: 1 μM, KmATP
# [21] = biological target: MAPK3 (ERK1) (Homo sapiens, UniProt P27361); conditions: 1 μM, KmATP
# [22] = biological target: MAPK7 (ERK5) (Homo sapiens, UniProt Q13164); conditions: 1 μM, KmATP
# [23] = biological target: MAPKAPK5 (PRAK) (Homo sapiens, UniProt Q8IW41); conditions: 1 μM, KmATP
# [24] = biological target: MATK (HYL) (Homo sapiens, UniProt P42679); conditions: 1 μM, KmATP
# [25] = biological target: NEK1 (Homo sapiens, UniProt Q96PY6); conditions: 1 μM, KmATP
# [26] = biological target: NEK4 (Homo sapiens, UniProt P51957); conditions: 1 μM, KmATP
# [27] = biological target: NEK6 (Homo sapiens, UniProt Q9HC98); conditions: 1 μM, KmATP
# [28] = biological target: PAK7 (KIAA1264) (Homo sapiens, UniProt Q9P286); conditions: 1 μM, KmATP
# [29] = biological target: PHKG2 (Homo sapiens, UniProt P15735); conditions: 1 μM, KmATP
# [30] = biological target: PLK1 (Homo sapiens, UniProt P53350); conditions: 1 μM, KmATP
# [31] = biological target: PRKCI (PKC iota) (Homo sapiens, UniProt P41743); conditions: 1 μM, KmATP
# [32] = biological target: ROCK2 (Homo sapiens, UniProt O75116); conditions: 1 μM, KmATP
# [33] = biological target: RPS6KB2 (Homo sapiens, UniProt Q9UBS0); conditions: 1 μM, KmATP
# [34] = biological target: SRMS (Srm) (Homo sapiens, UniProt Q9H3Y6); conditions: 1 μM, KmATP
# [35] = biological target: SRPK2 (Homo sapiens, UniProt P78362); conditions: 1 μM, KmATP
# [36] = biological target: STK22B (TSSK2) (Homo sapiens, UniProt Q96PF2); conditions: 1 μM, KmATP
# [37] = biological target: STK23 (MSSK1) (Homo sapiens, UniProt Q9UPE1); conditions: 1 μM, KmATP
# [38] = biological target: SYK (Homo sapiens, UniProt P43405); conditions: 1 μM, KmATP
# [39] = biological target: TAOK2 (TAO1) (Homo sapiens, UniProt Q9UL54); conditions: 1 μM, KmATP
structure (smiles),measurement,setting,value
"Cc1nc(C(F)(F)F)c2c(C(N)=O)c(N)n(-c3c(C)ccc(O)c3C)c2n1 (single isomer, unassigned)",MEAN INHIBITION,"[1]; 1 μM, KmATP",62.791%
same,IC50,"[1]; 10-point CR, ATP 10.000 μM",278 nM
same,MEAN INHIBITION,[2],3.532%
same,MEAN INHIBITION,[3],6.628%
same,MEAN INHIBITION,[4],2.507%
same,MEAN INHIBITION,[5],6.308%
same,MEAN INHIBITION,[6],2.475%
same,MEAN INHIBITION,[7],3.644%
same,MEAN INHIBITION,[8],3.471%
same,MEAN INHIBITION,[9],7.005%
same,MEAN INHIBITION,[10],4.754%
same,MEAN INHIBITION,[11],3.325%
same,MEAN INHIBITION,[12],3.983%
same,MEAN INHIBITION,[13],21.554%
same,MEAN INHIBITION,"[14]; 1 μM, KmATP",96.280%
same,IC50,"[14]; 10-point CR, ATP 25.000 μM",37 nM
same,IC50,[15],460 nM
same,MEAN INHIBITION,[16],3.350%
same,MEAN INHIBITION,[17],1.451%
same,MEAN INHIBITION,[18],2.549%
same,MEAN INHIBITION,"[19]; 1 μM, KmATP",45.731%
same,IC50,"[19]; 10-point CR, ATP 50.000 μM",867 nM
same,MEAN INHIBITION,[20],−1.141%
same,MEAN INHIBITION,[21],−0.113%
same,MEAN INHIBITION,[22],−0.819%
same,MEAN INHIBITION,[23],6.462%
same,MEAN INHIBITION,[24],10.674%
same,MEAN INHIBITION,[25],6.683%
same,MEAN INHIBITION,[26],3.233%
same,MEAN INHIBITION,[27],1.053%
same,MEAN INHIBITION,[28],1.008%
same,MEAN INHIBITION,[29],0.872%
same,MEAN INHIBITION,[30],2.360%
same,MEAN INHIBITION,[31],1.145%
same,MEAN INHIBITION,[32],5.617%
same,MEAN INHIBITION,[33],2.179%
same,MEAN INHIBITION,[34],27.698%
same,MEAN INHIBITION,[35],3.415%
same,MEAN INHIBITION,[36],4.540%
same,MEAN INHIBITION,[37],1.780%
same,MEAN INHIBITION,[38],5.317%
same,MEAN INHIBITION,[39],−1.299%
